Earlier results in patent US20260335453A1, “ISOINDOLINONE-GLUTARIMIDE ANTIBODY CONJUGATES, AND USES THEREOF” (FIREFLY BIO, INC., priority 2023, published 2026).

Target: extracellular domain of HER2
Details: cell-based assay; cited from earlier work

For Trastuzumab, the Kd is listed as 5 nM.
